The results in this text go back to patent US9302003B2, “Compositions comprising a radiosensitizer and an anti-cancer agent and methods of uses thereof” (priority 2009, dated 2016).

For the series, the system named is Fischer rats. The format is in vivo. The following applies: 1 ml/rat intra-carotid, platinum drugs 3 mg/ml, LipoGold 0.00289 mg/ml.

Regarding `O=C1[O][Pt]2([NH][C@@H]3CCCC[C@H]3[NH]2)[O]C1=O` [oxaliplatin], the apparent toxicity result is “apparent high toxicity”.
